Experimental data published in PubChem BioAssay AID504803 (The Scripps Research Institute Molecular Screening Center, 2011).
Only a part is listed here, and it is no random draw. Activity calls are given as the source filed them. Rule as the data show it: active = inhibition above about 36%; inactive = the rest.

Protein sequences, listed by entry. Tags and fused reporters are not part of them.
UniProt Q92743, whole entry: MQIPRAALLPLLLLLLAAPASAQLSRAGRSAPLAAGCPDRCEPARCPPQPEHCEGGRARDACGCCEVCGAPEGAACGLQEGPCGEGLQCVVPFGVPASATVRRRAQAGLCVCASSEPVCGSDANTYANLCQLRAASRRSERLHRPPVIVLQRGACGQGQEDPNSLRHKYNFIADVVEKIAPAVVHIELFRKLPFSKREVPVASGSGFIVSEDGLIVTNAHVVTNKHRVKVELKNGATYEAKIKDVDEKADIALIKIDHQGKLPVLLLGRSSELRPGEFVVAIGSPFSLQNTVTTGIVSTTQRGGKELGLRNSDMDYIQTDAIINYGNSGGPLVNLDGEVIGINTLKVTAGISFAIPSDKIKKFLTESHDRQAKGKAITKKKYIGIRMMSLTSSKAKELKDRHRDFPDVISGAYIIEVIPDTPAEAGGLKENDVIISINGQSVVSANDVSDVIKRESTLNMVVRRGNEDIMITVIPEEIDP

These compounds were tested against Serine protease HTRA1 (Homo sapiens) (UniProt Q92743) (assay: inhibition of human HTRA1 peptidase – biochemical, fluorescence polarization, HTS, primary screen (AID 504803;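 also: 0% = enzyme with DMSO and 100% = wells lacking enzyme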)). Conditions: recombinant HTRA1, FP-rhodamine activity-based probe, at 5.96 µM, active compounds read high.
With `CCCCOc1ccc(C(=O)NCC2(N3CCOCC3)CCCCC2)cc1` the inhibition was inactive: -1.82%.
For `O=P1(N(CCCl)CCCl)SCCCS1`, the inhibition was inactive: -3.25%.
For `O=C(NCC1(N2CCCCC2)CCCCC1)c1ccc(F)cc1`, the inhibition was inactive: 1.83%.
For `CCOC(=O)N1CCC(Nc2ccc(F)cc2)CC1`, the inhibition was inactive: 3.38%.
With `COc1ccc(NC2CCN(CCc3ccccc3)CC2)c(OC)c1` the inhibition was inactive: 9.61%.
`CCOc1ccc(C)cc1CN(CCCl)CCCl` was tested, and the inhibition was inactive: 7.46%.
`O=C1CCN(Cc2ccccc2)CC1` was tested, and the inhibition was inactive: -7.72%.
`CCOC(=O)N1CCC(Nc2cccc(C)c2)CC1` was tested, and the inhibition was inactive: -0.36%.
`COc1cc(C(=O)NCC2(N(C)C)CCCCC2)ccc1OC(F)F` was tested, and the inhibition was inactive: 9.09%.
In the case of `CSc1ccccc1C(=O)NCC1(N2CCCCC2)CCCCC1`, the inhibition is reported as inactive: -1.99%.
For `Cc1cccc(NC2(C#N)CCN(Cc3ccccc3)CC2)c1`, the inhibition was inactive: 5.72%.
With `O=C(NCC1(N2CCCCC2)CCCCC1)c1ccc(=O)[nH]c1` the inhibition was inactive: 1.79%.
With `O=C(NCC1(N2CCCCC2)CCCCC1)c1cccs1` the inhibition was inactive: -0.31%.
With `COc1ccc(C(=O)NCC2(N3CCCCC3)CCCCC2)cc1` the inhibition was inactive: -2.81%.
In the case of `COc1ccc(C(=O)NCC2(N3CCCCC3)CCCCC2)c(OC)c1OC`, the inhibition is reported as inactive: -1.46%.
In the case of `CC(C)(C)OC(=O)N1CCC(N(C(=O)c2ccccc2)c2ccc(F)cc2)CC1`, the inhibition is reported as inactive: -5.32%.
In the case of `CCOC(=O)N1CCC(Nc2ccc(OC)cc2)CC1`, the inhibition is reported as inactive: 4.24%.
`N#CC1(Nc2ccccc2)CCN(Cc2ccccc2)CC1` was tested, and the inhibition was inactive: 8.06%.
For `O=C(NCC1(N2CCCCC2)CCCCC1)c1ccc(Cl)s1`, the inhibition was inactive: -3.77%.
`O=C(OC1CN2CCC1CC2)C1c2ccccc2Oc2ccccc21` (stereo not given) was tested, and the inhibition was inactive: 4.38%.
With `COc1ccc(Cl)cc1C(=O)NCC1(N2CCOCC2)CCCCC1` the inhibition was inactive: -3.15%.
With `O=C(NCC1(N2CCOCC2)CCCCC1)c1cc2ccccc2o1` the inhibition was inactive: -13.3%.
With `O=C(NCC1(N2CCCCC2)CCCCC1)c1ccc(Cl)nc1` the inhibition was inactive: 0.62%.
With `Cc1cc(C)cc(N(C(=O)c2ccccc2)C2CCN(C(=O)OC(C)(C)C)CC2)c1` the inhibition was inactive: -26.5%.
With `COc1cc(OC)c(C(=O)NCC2(N(C)C)CCCCC2)cc1OC` the inhibition was inactive: 5.17%.
In the case of `O=C(NCC1(N2CCOCC2)CCCCC1)c1cc(F)c(F)cc1Cl`, the inhibition is reported as inactive: 9.27%.
For `COc1ccc(CN(CCCl)CCCl)cc1Cl`, the inhibition was inactive: -3.16%.
`CN(C)c1cccc(C(=O)NCC2(N3CCCCC3)CCCCC2)c1` was tested, and the inhibition was inactive: 7.1%.
For `CC(C)c1ccc(NC2CCN(C(=O)OC(C)(C)C)CC2)cc1`, the inhibition was inactive: 7.59%.
For `Cc1ccc(C(=O)NCC2(N(C)C)CCCCC2)o1`, the inhibition was inactive: 9.5%.
With `CCCOc1ccc(C(=O)NCC2(N(C)C)CCCCC2)cc1OC` the inhibition was inactive: 1.39%.
In the case of `CN1CCC(Nc2cccc(F)c2)CC1`, the inhibition is reported as inactive: 0.68%.
In the case of `O=C(NCC1(N2CCCCC2)CCCCC1)c1cncc(Br)c1`, the inhibition is reported as inactive: -1.38%.
In the case of `CSc1ccc(C(=O)NCC2(N3CCOCC3)CCCCC2)cc1`, the inhibition is reported as inactive: -0.97%.
In the case of `O=C(NCC1(N2CCCCC2)CCCCC1)c1cccc([N+](=O)[O-])c1`, the inhibition is reported as inactive: -0.7%.
For `CCN1CCC(Nc2ccc(Cl)cc2)CC1`, the inhibition was inactive: 5.9%.
For `N#CC1(Nc2ccccc2)CCN(CCc2ccccc2)CC1`, the inhibition was inactive: 6.09%.
In the case of `O=C(NCC1(N2CCCCC2)CCCCC1)c1ccc(OC(F)F)cc1`, the inhibition is reported as inactive: -10.2%.
`COc1ccc(NC2CCN(C(=O)OC(C)(C)C)CC2)cc1` was tested, and the inhibition was inactive: 2.68%.
For `CC(C)c1ccc(C(=O)NCC2(N3CCOCC3)CCCCC2)cc1`, the inhibition was inactive: 0.29%.
With `CN1CCN(CCOC(=O)C(O)(c2ccccc2)c2ccccc2)CC1` the inhibition was inactive: 2.78%.
In the case of `O=C(NCC1(N2CCOCC2)CCCCC1)c1cc(=O)[nH]c2ccccc12`, the inhibition is reported as inactive: 1.17%.
With `COc1cc(C(=O)NCC2(N3CCCCC3)CCCCC2)ccc1OC(F)F` the inhibition was inactive: -7.96%.
With `O=C(NCC1(N2CCCCC2)CCCCC1)c1cccc(C(F)(F)F)c1` the inhibition was inactive: 7.01%.
In the case of `CC(C)(C)OC(=O)N1CCC(N(C(=O)c2ccccc2)c2ccc(Cl)cc2)CC1`, the inhibition is reported as inactive: -18.4%.
With `N#Cc1ccc(C(=O)NCC2(N3CCCCC3)CCCCC2)cc1` the inhibition was inactive: 3.38%.
`c1ccc(CN2CCC(Nc3ccccc3)CC2)cc1` was tested, and the inhibition was inactive: -3.19%.
With `CCCN1CCC(Nc2cc(OC)cc(OC)c2)CC1` the inhibition was inactive: 7.01%.
For `Cc1cc(N(CCCl)CCCl)ccc1C=O`, the inhibition was inactive: 1.75%.
For `CN(C)C1(CNC(=O)c2cccc(C#N)c2)CCCCC1`, the inhibition was inactive: -11.3%.
`COc1ccc(C(=O)NCC2(N3CCOCC3)CCCCC2)cc1OC` was tested, and the inhibition was inactive: -2.4%.
For `O=C(NCC1(N2CCOCC2)CCCCC1)c1cc(Br)ccc1Cl`, the inhibition was inactive: 6.12%.
For `COc1cc(C(=O)NCC2(N3CCOCC3)CCCCC2)cc(OC)c1C`, the inhibition was inactive: -7.13%.
For `O=C(OC1CN2CCC1CC2)C1c2ccccc2C=Cc2ccccc21` (stereo not given), the inhibition was inactive: 2.12%.
In the case of `N/C(=N\O)c1c(N)no[n+]1[O-]`, the inhibition is reported as inactive: 5.44%.
For `CCOC(=O)N1CCC(Nc2ccc(C)cc2)CC1`, the inhibition was inactive: -1.89%.
For `CCCOc1ccc(C(=O)NCC2(N(C)C)CCCCC2)cc1`, the inhibition was inactive: -2.92%.
With `CC(C)(C)OC(=O)N1CCC(Nc2ccccc2)CC1` the inhibition was inactive: -3.97%.
`O=C(O)C1(Nc2ccccc2)CCN(Cc2ccccc2)CC1` was tested, and the inhibition was inactive: -0.06%.
With `CCOc1ncccc1C(=O)NCC1(N2CCOCC2)CCCCC1` the inhibition was inactive: 0.37%.
For `CN1CCC(Nc2ccc(F)c(Cl)c2)CC1`, the inhibition was inactive: -0.12%.
`CN1CCC(Nc2ccc(Cl)cc2)CC1` was tested, and the inhibition was inactive: 0.87%.
`CCC(CO)(C(=O)OC1CN2CCC1CC2)c1ccccc1` (stereo not given) was tested, and the inhibition was inactive: 7.31%.
In the case of `COc1cccc(C(=O)N(c2cc(C)cc(C)c2)C2CCN(C(=O)OC(C)(C)C)CC2)c1`, the inhibition is reported as inactive: -2%.
For `COc1cc(OC)cc(C(=O)NCC2(N3CCOCC3)CCCCC2)c1`, the inhibition was inactive: -0.91%.
With `Cc1ccc(NC2(C#N)CCN(Cc3ccccc3)CC2)cc1` the inhibition was inactive: 3.21%.
`Cc1ccc(C(=O)NCC2(N3CCCCC3)CCCCC2)o1` was tested, and the inhibition was inactive: -2.31%.
For `Fc1ccccc1NC1CCN(Cc2ccccc2)CC1`, the inhibition was inactive: 2.17%.
With `COc1cc(OC)cc(C(=O)NCC2(N3CCCCC3)CCCCC2)c1` the inhibition was inactive: 5.52%.
In the case of `CC(=O)N(c1ccccc1)C1CCNCC1`, the inhibition is reported as inactive: 4.78%.
In the case of `O=C(NCC1(N2CCCCC2)CCCCC1)c1ccco1`, the inhibition is reported as inactive: -7.64%.
For `CN(C)c1ccc(C(=O)NCC2(N3CCCCC3)CCCCC2)cc1`, the inhibition was inactive: 1.8%.
`Cn1c(=O)[nH]cc(N(CCCl)CCCl)c1=O` was tested, and the inhibition was inactive: -0.24%.
`Cc1ccccc1NC1(C#N)CCN(Cc2ccccc2)CC1` was tested, and the inhibition was inactive: 3.18%.
For `CCN1CCC(Nc2cccc(F)c2)CC1`, the inhibition was inactive: 12%.
